These are literature values, as cited in publication PMC2453524.

A word on the Kd: it is the equilibrium constant for the complex coming apart.

One data set addresses STAM2 (Homo sapiens) (UniProt O75886).
In a further data set the target is Hrs (Homo sapiens) (UniProt O14964).

With Ubiquitin (from UniProt P0CG47), the dissociation constant (Kd) is 10 µM with STAM2 (Homo sapiens) and 200 µM with Hrs (Homo sapiens).
